The results in this text go back to publication PMC3197488, “Characterization of the χψ subcomplex of Pseudomonas aeruginosa DNA polymerase III” (BMC Molecular Biology, 2011).

B1: E. coli χψ complex (complex)
chain 1: MKNATFYLLDNDTTVDGLSAVEQLVCEIAAERWRSGKRVLIACEDEKQAYRLDEALWARPAESFVPHNLAGEGPRGGAPVEIAWPQKRSSSRRDILISLRTSFADFATAFTEVVDFVPYEDSLKQLARERYKAYRVAGFNLNTATWK
chain 2: MTSRRDWQLQQLGITQWSLRRPGALQGEIAIAIPAHVRLVMVANDLPALTDPLVSDVLRALTVSPDQVLQLTPEKIAMLPQGSHCNSWRLGTDEPLSLEGAQVASPALTDLRANPTARAALWQQICTYEHDFFPRND
notes: DNA polymerase III χ subunit (holC), E. coli strain LK111λ; as m4; DNA polymerase III ψ subunit (holD), E. coli strain LK111λ; as m5; Heterodimer, calculated molar mass 31.8 kg/mol; also called Ecoχψ; Ecoχψ heterodimer; source: E. coli, expressed untagged from pET-15b, purified (ammonium sulfate, Q-sepharose, SEC); copies: 1 + 1
B3: E. coli single-stranded DNA-binding protein, wild type (natural protein, UniProt P0AGE0 1-178, looked up)
chain: MASRGVNKVILVGNLGQDPEVRYMPNGGAVANITLATSESWRDKATGEMKEQTEWHRVVLFGKLAEVASEYLRKGSQVYIEGQLRTRKWTDQSGQDRYTTEVVVNVGGTMQMLGGRQGGGAPAGGNIGGGQPQGGWGQPQQPQGGNQFSGGAQSRPQQSAPAAPSNEPPMDFDDDIPF
notes: also called EcoSSB; wild-type EcoSSB

Holding throughout (settings): both partners purified
Assay [1] has as its target B3. The assay is described as follows: AUC; sedimentation velocity; χψ titrated to 6 μM SSB in high salt buffer, 50000 rpm, 20°C, 280 nm; free χψ from c(s); model of n independent χψ per SSB tetramer.
Assay [2] has as its target B3. The assay is described as follows: AUC; sedimentation velocity; χψ titrated to 0.35 μM cognate SSB saturated with 12.3 μM poly(dT), low salt buffer, 22000 rpm, 20°C, 230 nm; model of n χψ per SSB tetramer.
For assay [3], the target named is T1, E. coli DNA polymerase III χ subunit (E. coli, UniProt P28905 1-147).
T1 construct: DNA polymerase III χ subunit, holC gene amplified from genomic DNA of E. coli strain LK111λ; Two vectors were used for the same protein: pET-15b (NcoI/XhoI, with Ecoψ) and pCDFDuet-1 (NdeI/XhoI, for the chimeric χEcoψPae complex); Primers in Additional file 9; also called Ecoχ; χEco; source: E. coli, co-expressed untagged with Ecoψ (pET-15b) and purified as Ecoχψ (ammonium sulfate, Q-sepharose, …)
T1 sequence (looked up): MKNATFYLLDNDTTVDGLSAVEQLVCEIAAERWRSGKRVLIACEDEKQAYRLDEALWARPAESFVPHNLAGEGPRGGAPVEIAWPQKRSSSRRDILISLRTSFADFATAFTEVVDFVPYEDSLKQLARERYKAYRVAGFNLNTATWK
Kind of assay: AUC; sedimentation equilibrium, high salt buffer (0.3 M NaCl, 20 mM KPi pH 7.4, 0.5 mM DTT), 4°C, 9000, 13000 and 18000 rpm; Paeχψ at 5.8 and 23.3 μM; global fit with a single molar mass.

In assay [4] the target is B1. Kind of assay: AUC; sedimentation velocity; χψ titrated to 6 μM SSB in high salt buffer, 50000 rpm, 20°C, 280 nm; free χψ from c(s); model of n independent χψ per SSB tetramer.
Assay [5] has as its target B1. The assay is described as follows: AUC; sedimentation velocity; χψ titrated to 0.35 μM cognate SSB saturated with 12.3 μM poly(dT), low salt buffer, 22000 rpm, 20°C, 230 nm; model of n χψ per SSB tetramer.

Regarding B1, the entries for the “stoichiometry N” value in assay [1] and in assay [2] were 3.8 χψ per SSB tetramer and 3 χψ per SSB tetramer, respectively.

B2: E. coli DNA polymerase III ψ subunit (natural protein, UniProt P28632 1-137, looked up)
chain: MTSRRDWQLQQLGITQWSLRRPGALQGEIAIAIPAHVRLVMVANDLPALTDPLVSDVLRALTVSPDQVLQLTPEKIAMLPQGSHCNSWRLGTDEPLSLEGAQVASPALTDLRANPTARAALWQQICTYEHDFFPRND
notes: DNA polymerase III ψ subunit, holD gene amplified from genomic DNA of E. coli strain LK111λ; Primers in Additional file 9; also called Ecoψ; ψEco; source: E. coli, co-expressed untagged with Ecoχ (pET-15b), purified as Ecoχψ (ammonium sulfate, Q-sepharose, SEC)
For B2, in assay [3], the binding result was “binds”.
As to B3, the Ka in the assay with E. coli χψ complex [4] came out at 180000 M⁻¹; in the assay with E. coli χψ complex [5], 6e+06 M⁻¹.
